Reference: patent publication US20250361273A1, “METHODS AND COMPOSITIONS” (priority 2024, published 2025)

By UniProt entry, the sequences of proteins in these tests, tags left out. Where a name states a change or a piece, a line headed by the entry shows the natural chain unless it says otherwise.
UniProt Q01726: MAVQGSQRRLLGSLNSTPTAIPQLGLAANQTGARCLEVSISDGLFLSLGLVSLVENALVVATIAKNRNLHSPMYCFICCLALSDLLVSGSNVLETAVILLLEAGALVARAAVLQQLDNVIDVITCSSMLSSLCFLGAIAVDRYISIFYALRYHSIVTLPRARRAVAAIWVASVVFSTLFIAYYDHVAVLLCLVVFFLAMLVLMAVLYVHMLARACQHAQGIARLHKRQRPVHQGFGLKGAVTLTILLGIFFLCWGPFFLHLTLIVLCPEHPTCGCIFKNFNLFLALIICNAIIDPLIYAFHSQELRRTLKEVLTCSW

Target: MC1R (Homo sapiens, UniProt Q01726)
Experiment: cAMP assay (human receptors), DiscoverX HitHunter, MC1R
Details: read-out: MC1R EC50, HEK293

For a-MSH, the EC50 was 2.39 nM.
